Experimental data: patent US7601685B2, “Growth factor modified protein matrices for tissue engineering” (Eidgenossische Technische Hochschule Zurich, priority 1998, dated 2009)

What was measured:
[1] = tested on: ectopic model of bone formation; assay: Ectopic bone formation, fibrin matrices implanted subcutaneously in rats; format: in vivo; details: fibrin matrices with delivery system, subcutaneous in rats
Procedure: The ability of a heparin-containing delivery system to deliver growth factors in an active form was tested in an ectopic model of bone formation, where fibrin matrices containing the delivery system and BMP-2 were implanted subcutaneously in rats. […] (See Example 5).
Fibrin gels were synthesized with a different bi-domain peptide with the sequence LNQEQVSPK(αA)FAKLAARLYRKA (SEQ ID NO:36). This peptide is derived from the Factor XIIIa substrate sequence for α2-plasmin inhibitor in the first domain and a mimetic of the heparin binding domain of antithrombin III in the second domain. BMP-2 is a heparin binding protein and binds to the sequence given above. Gels were polymerized in the presence of the peptide (at 1 mM), heparin and recombinant human BMP-2 in ratios of heparin to BMP-2 of 1:1 and 40:1.
Control gels were created that had equivalent amounts of the morphogenetic protein, BMP-2, but lacking the heparin and bi-domain peptide. These gels were then implanted subcutaneously into rats and were allowed to remain for two weeks.

[2] = tested on: critical size rat cranial defect; details: by 3 weeks; stated as reason for the early timepoint; cited from earlier work

B1: BMP-2: recombinant human BMP-2, a heparin binding protein (protein, UniProt P12643 283-396, looked up)
Bone morphogenetic protein 2: QAKHKQRKRLKSSCKRHPLYVDFSDVGWNDWIVAPPGYHAFYCHGECPFPLADHLNSTNHAIVQTLVNSVNSKIPKACCVPTELSAISMLYLDENEKVVLKNYQDMVVEGCGCR
conditions for bone formation ([1]; heparin to growth factor ratio 1:1): favorable conditions for bone formation | effect on bone formation ([1]; heparin to growth factor ratios 5:1 or greater): inhibitory to bone formation | healing effect [2]: strong healing effect
